Measured values from patent publication US20100204275A1 (published 2010).

Chains of the proteins cited; added tags and fusions are not shown. Residues count along the entry.
UniProt P23977, whole entry, looked up: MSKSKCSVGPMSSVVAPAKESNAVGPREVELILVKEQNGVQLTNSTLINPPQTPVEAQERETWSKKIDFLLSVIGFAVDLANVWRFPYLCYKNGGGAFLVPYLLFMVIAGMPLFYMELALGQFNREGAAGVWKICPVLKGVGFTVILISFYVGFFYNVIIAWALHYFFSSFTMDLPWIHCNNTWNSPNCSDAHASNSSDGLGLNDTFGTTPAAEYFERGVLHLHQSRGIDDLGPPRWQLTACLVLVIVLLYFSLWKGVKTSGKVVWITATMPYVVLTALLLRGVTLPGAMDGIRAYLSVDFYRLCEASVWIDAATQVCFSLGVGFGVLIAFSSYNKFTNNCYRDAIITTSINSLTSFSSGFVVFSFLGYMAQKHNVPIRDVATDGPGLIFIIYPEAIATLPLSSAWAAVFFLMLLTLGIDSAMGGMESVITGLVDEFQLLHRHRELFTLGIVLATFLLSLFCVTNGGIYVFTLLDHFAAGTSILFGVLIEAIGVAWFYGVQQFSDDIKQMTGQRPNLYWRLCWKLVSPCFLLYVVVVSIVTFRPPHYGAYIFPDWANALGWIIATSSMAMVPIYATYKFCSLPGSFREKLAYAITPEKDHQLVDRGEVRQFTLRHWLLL
UniProt Q63380, 1-617: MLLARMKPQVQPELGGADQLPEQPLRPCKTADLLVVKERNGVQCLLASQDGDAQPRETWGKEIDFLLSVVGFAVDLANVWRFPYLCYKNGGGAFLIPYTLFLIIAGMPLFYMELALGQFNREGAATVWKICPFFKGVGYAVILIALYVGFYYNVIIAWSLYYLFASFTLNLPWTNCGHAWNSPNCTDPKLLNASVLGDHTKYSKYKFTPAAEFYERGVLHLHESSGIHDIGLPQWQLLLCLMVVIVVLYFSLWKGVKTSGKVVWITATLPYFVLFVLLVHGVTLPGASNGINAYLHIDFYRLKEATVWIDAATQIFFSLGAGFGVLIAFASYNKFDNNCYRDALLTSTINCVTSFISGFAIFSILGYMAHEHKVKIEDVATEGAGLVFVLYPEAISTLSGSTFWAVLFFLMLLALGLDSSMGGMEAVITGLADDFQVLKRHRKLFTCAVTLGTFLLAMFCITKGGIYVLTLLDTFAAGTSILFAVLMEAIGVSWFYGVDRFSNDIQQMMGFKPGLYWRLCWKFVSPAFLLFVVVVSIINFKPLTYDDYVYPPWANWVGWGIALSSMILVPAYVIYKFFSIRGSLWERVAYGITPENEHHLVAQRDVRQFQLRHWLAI
UniProt P31652, whole entry, looked up: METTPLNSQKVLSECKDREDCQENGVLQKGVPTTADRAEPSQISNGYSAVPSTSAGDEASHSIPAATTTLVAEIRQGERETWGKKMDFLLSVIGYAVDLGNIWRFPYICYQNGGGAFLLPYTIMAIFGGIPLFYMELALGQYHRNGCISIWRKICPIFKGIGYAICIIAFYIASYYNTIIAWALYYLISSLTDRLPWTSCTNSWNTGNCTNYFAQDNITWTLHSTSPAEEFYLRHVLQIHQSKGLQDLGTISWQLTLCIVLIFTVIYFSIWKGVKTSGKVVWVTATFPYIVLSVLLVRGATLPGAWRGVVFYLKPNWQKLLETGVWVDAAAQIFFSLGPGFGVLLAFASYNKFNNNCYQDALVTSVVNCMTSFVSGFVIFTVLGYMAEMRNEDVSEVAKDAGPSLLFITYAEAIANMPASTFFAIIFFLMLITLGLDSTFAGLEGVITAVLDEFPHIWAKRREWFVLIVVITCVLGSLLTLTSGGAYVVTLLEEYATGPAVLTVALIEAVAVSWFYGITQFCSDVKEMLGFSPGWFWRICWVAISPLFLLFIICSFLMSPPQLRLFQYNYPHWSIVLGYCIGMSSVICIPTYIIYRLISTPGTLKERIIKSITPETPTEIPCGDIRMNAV

Columns and labels:
[1] = target: reuptake of dopamine (DA) in synaptosomes (Rattus norvegicus, UniProt P23977); experiment: Inhibition of DA reuptake in synaptosomes; settings: read-out: DA-uptake IC50, 3H-DA
[2] = target: reuptake of noradrenaline (NA) in synaptosomes (Rattus norvegicus, UniProt Q63380); experiment: Inhibition of NA reuptake in synaptosomes; settings: read-out: NA-uptake IC50, 3H-NA
[3] = target: reuptake of serotonine (5-HT) in synaptosomes (Rattus norvegicus, UniProt P31652); experiment: Inhibition of 5-HT reuptake in synaptosomes; settings: read-out: 5-HT-uptake IC50, 3H-5-HT

Row | SMILES | IC50 [1] | IC50 [2] | IC50 [3]
1 | CCC(=O)N(CC1CCNCC1)c1ccc2cc(O)ccc2c1 | 490 nM | 8.1 nM | 47 nM
2 | CCC(=O)N(CC1CCNCC1)c1ccc(Cl)c(Cl)c1 | 86 nM | 7.2 nM | 6.6 nM
